# Measured affinities in a library of Ab-14 light chain variants

The measurements come from Li et al. 2023 (doi:10.1038/s41467-023-39022-2) through the FLAb antibody collection.

Target: peptide PDVDLGDISGINAS, taken from heptad repeat 2 (HR2) of SARS-CoV-2 spike.

Each scFv is VH, a (GGGGS)3 linker, VL, as in the parent Ab-14, and differs from it in the CDRs of the light chain only.
VH: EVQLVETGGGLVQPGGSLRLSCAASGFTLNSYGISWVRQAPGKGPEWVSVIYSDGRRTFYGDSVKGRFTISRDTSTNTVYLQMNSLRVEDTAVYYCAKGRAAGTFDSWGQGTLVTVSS
VL: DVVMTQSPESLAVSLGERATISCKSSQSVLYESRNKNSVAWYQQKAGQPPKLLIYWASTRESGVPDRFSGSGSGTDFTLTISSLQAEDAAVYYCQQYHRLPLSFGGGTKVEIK

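The parent was found by panning a naive human phage display library on the peptide. This is the validation round: designs drawn from the data on random variants, tested in the same kind of assay. Group labels follow the data file (Ctrl: baseline library sampled from a position-specific scoring matrix, with some repeated check sequences; En: ensemble of fine-tuned language models; GP: Gaussian process model; HC: hill climbing; Gen: genetic algorithm; Gibbs: Gibbs sampling; a sequence that several methods proposed may carry one label only). AlphaSeq pools MATa yeast showing the antibodies with MATalpha yeast showing the peptide. Pairs that bind mate more often; barcode pairs of the diploids are counted by sequencing. The ratio of observed to expected reads was calibrated, replicate by replicate, on BCL2-family standards whose Kd was known from biolayer interferometry. Each pool was mated in six replicate cultures.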

The parent's light chain CDRs are KSSQSVLYESRNKNSVA, WASTRES, QQYHRLPLS; each variant's own CDRs replace them letter for letter.
The Kd shown is the geometric mean over detected replicates; a lower Kd is a better binder.
"nd" means that the variant was in the library but no mating with the target was seen in any replicate; the authors take this as a sign of poor binding, and no number exists.
Nonspecific signal, from three strains lacking the peptide, appeared in 4% of pairings of all light chain designs, centred on 430 nM (5% of these signals below 38 nM); values are not corrected for it.

CDR-L1 | CDR-L2 | CDR-L3 | group | apparent Kd | seen in
KLSQSVEQLSRNKNSVA | MASQREV | QQYHRLPLS | GP_Gibbs | 1.1 nM | 6/6
KLSQSVRMESFNKNSVA | ENSTREE | QDYHRLPLS | En_HC | 61 nM | 3/6
KSEMLWDYKDRNLNSVA | NASTRES | QQYHRLPLS | GP_Gibbs | 6.9 nM | 6/6
HFSIGMNQGSSMEHNIA | EGTYAEE | QQYARLPLQ | En_Gibbs | 17 nM | 1/6
QLSMITGHYSMRKNNVA | EMETREN | QQYDRLPLS | En_Gen | 6.4 nM | 6/6
KSSQSVLYESRNKNSVA | WASTRES | QCIHRLPLS | Ctrl | 1.3 µM | 2/6
HIQDDAGGLREQFDSVA | STEERSY | QQYHRLPLS | En_Gibbs | 10 nM | 6/6
KISQSELYESRNKNSVA | NASQRLS | QQYHRLPLS | GP_Gen | 9.8 nM | 6/6
SFSQTVMYQSTMRNNVA | QTSTRES | QQYDRLPLS | En_HC | 1.9 nM | 6/6
KISQMVKVGAVHNNSIA | EEVTRAK | QQYHRLPLA | En_Gen | 450 nM | 1/6
KFSQSYLYESRNKNSVA | NASTREQ | QQYHRLPLS | GP_Gen | 350 pM | 6/6
KSSKSVLYESRNKNSVA | YASTRES | QQYHRLPLS | Ctrl | 330 nM | 1/6
KLSQSMDYESRNKNSVA | DASTRES | QQYHRLPLS | GP_Gen | 870 pM | 6/6
TIGHTLMQGTRNRSNVA | EVSERLN | QQYDRLPLI | En_Gen | 16 nM | 6/6
KVSTSELEESRNKGSVA | WASLREE | QQYHRLPLS | GP_Gibbs | 3.6 nM | 6/6
KSSQSVLYESRNKNSIA | SASTRTS | QAYHRLPLE | Ctrl | 14 nM | 6/6
KVQQSELYESRNKNSVA | NASTRES | QQYHRLPLS | GP_Gen | 5.0 nM | 6/6
KIYMMTGYESRNADSIA | DNSTRGR | QQYHRLPLS | En_HC | 39 nM | 6/6
KVQYQLAPSEAHTNNVA | DASVVCA | QQYQRLPLG | En_Gibbs | 4.9 nM | 6/6
KLSQSQGYESRNKNNVA | NASTRES | QQYHRLPLS | GP_Gen | 1.1 nM | 6/6
KSSWSWLYESRNKNSVA | GASTREN | QQYHRLPLS | GP_HC | 710 pM | 6/6
KSSQSVLYNSRNKNSVA | QASERES | QQYHRLPLD | Ctrl | 210 nM | 5/6
MIYGAQRELGLAANSIA | DNVTRYQ | QQYERLPLS | En_Gen | 8.0 nM | 6/6
IQSQSVLMESRNKNSVA | DASTRES | QQYHRLPLS | GP_HC | 1.9 nM | 6/6
HVSNLYTDEMVREYNIA | ETSHVEE | QQYERLPLI | En_Gibbs | 9.3 nM | 6/6
KLSESELYESRNKNSVA | NASTRLS | QQYHRLPLS | GP_Gen | 600 pM | 6/6
TISQVMNTLERHGNNVA | DLAERED | QQYFRLPLS | En_Gen | 3.3 nM | 6/6
KLDQSVLGESRNKNSVA | HANQRES | QQYHRLPLY | GP_Gibbs | 700 pM | 6/6

Continued, with the values leading:

apparent Kd | seen in | CDR-L1 | CDR-L2 | CDR-L3 | group
6.3 nM | 6/6 | KVSQSWLKESRNKNSVA | EASTRCS | QQYHRLPLS | GP_HC
720 pM | 6/6 | KQSQSWLYESRNKNSIA | NANQREQ | QQYHRLPLS | GP_Gibbs
1.6 nM | 6/6 | KLNMMTGLETKMRNSVA | QMTTREE | QQYNHLPLS | En_Gen
550 nM | 3/6 | KVSEFTRGLMSRQDSIA | DNVTREN | QQYDRLPLS | En_Gen
1.3 nM | 6/6 | KLSQSHLYESRQKNSVA | NASTRES | QQYHRLPLS | GP_Gen
1.5 µM | 2/6 | MVSQLMVWGMHAKNSIA | EAQTRCN | QQYDRLPLF | En_Gen
160 nM | 4/6 | KLRESTHVESKQKNNVA | DNSTRES | QDYHRLPLS | En_HC
300 nM | 5/6 | KSDQSILYESRNKNSVA | WASTRES | QQYHRLPLS | Ctrl
760 pM | 6/6 | HLNLEYMQMMKDHNSIA | DTEHKTQ | QQYFRLPIS | En_Gibbs
1.3 nM | 6/6 | KLDMYDWLESRNKNSVA | QASQREW | QQYHRLPLS | GP_Gibbs
2.1 nM | 6/6 | QLNHYKHETMAKTQNIA | DMTIRED | QQYAHLPLA | En_Gibbs
160 nM | 6/6 | KLSQSVLYESQNKNSVA | WAKTRES | QQYVRLPLS | Ctrl
1.8 nM | 6/6 | KQQISVDQESRQKNSVA | NASTRCE | QQYHRLPLS | GP_Gibbs
nd | 0/6 | KSSQSVLYESYNKNSVA | WASTRES | QQYHFLPLS | Ctrl
1.0 nM | 6/6 | KIGATLNTLMHTKNNVA | DLVMREQ | QQYHRLPLS | En_Gen
780 nM | 5/6 | KSSQSVLYESRHKNSVA | WASTRES | QQYFRLELS | Ctrl
3.2 nM | 1/6 | KSSQSVLYEDRVKNSVA | WASTRES | QQYHRLPLS | Ctrl
6.3 nM | 6/6 | KSSISKLYESRNENSVA | EASTREQ | QQYHRLPLS | GP_HC
99 nM | 6/6 | KVSQSVLPESRNKNSVA | WASTRET | QQYHRLPLS | Ctrl
31 nM | 6/6 | KIMQSLNYESFMKNSVA | GQETRES | QSYHRLPLS | En_HC
nd | 0/6 | KSSQSVLYESRNKNSVA | WASTRES | QQYHRLSLS | Ctrl
nd | 0/6 | LIETLSQGMRDNWSAVA | EAHMLVQ | QHYARLPLS | En_Gibbs
74 nM | 6/6 | TFNLEYQGTNEKHQNIA | EVENKTD | QQYVRLPLI | En_Gibbs
1.7 nM | 6/6 | KISQSHLYESRNWNAVA | EASTRPS | QQYHRLPLS | GP_Gibbs
16 nM | 2/6 | KTSQSMLYASRNKNSVA | WASTRES | QQYHRLPLS | Ctrl
200 nM | 5/6 | MLSQMWALGQKVKNSVA | QASMRFN | QQYDRLPLV | En_Gen
720 pM | 6/6 | KLSESVLYESRNKNSVA | EASTRLS | QQYHRLPLS | GP_Gen
2.0 nM | 6/6 | KSSISNLYESRNKNSVA | AASTRES | QQYHRLPLS | GP_HC

Values of this round are not directly comparable with the first-round values of the same sequences.
Of ten entries with the parent sequence, four were seen in most replicates (averages 2.2 nM to 240 nM), three in one and three in none, so single entries are noisy.
In the paper, a design with two or fewer of six values counts as a poor binder.